“And” between values parts separate entries of the source, which are not always exact repeats. Equal values may be shown once. The entries are a selection whose mix differs from that of the whole data set. Inconclusive results are not listed. Some compounds were tested as several samples or in several runs, with calls that do not always agree. The source made the active and inactive calls. Unless noted, calls follow the shape of the dose curve; as a rule, active = well fitted curve in the direction sought with a large enough effect in the repeat runs; inconclusive = weak or mixed curves; inactive = no such curve, though single readings can be large; an effect the other way counts as inactive or inconclusive.
Assays:
[1] = qHTS assay to identify small molecule HDAC inhibitors (AID 1259364); conditions: HCT-116 HDAC-Glo I/II luminescence, 2 h; series mostly up to 92.4 µM; also: nearly all actives have a fitted effect of over 45% in size; also: potency is read from the fitted curve at half-maximal effect
Method in brief: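 Wild-type HCT-116 cells were plated overnight, exposed to compounds for 2 h at 37 °C, then given HDAC-Glo class I/II luminogenic reagent for 30 min at room temperature before luminescence was read.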

The chains behind the UniProt entries cited, without tags or fusion partners.
UniProt Q92731, whole entry: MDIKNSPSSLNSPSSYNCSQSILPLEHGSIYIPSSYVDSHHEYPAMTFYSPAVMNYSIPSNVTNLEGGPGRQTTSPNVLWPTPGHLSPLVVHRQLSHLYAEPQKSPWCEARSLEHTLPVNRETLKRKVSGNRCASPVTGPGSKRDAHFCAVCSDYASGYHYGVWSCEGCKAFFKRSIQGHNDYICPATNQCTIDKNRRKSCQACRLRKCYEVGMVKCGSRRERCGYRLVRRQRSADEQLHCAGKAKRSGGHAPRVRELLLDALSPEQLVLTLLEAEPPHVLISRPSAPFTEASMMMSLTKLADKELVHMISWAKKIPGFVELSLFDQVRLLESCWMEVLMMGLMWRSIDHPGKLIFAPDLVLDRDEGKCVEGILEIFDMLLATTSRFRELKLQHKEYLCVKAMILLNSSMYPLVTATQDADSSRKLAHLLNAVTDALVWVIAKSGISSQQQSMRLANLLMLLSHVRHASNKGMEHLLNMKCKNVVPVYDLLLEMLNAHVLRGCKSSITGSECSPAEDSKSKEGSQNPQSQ
UniProt P10275, whole entry: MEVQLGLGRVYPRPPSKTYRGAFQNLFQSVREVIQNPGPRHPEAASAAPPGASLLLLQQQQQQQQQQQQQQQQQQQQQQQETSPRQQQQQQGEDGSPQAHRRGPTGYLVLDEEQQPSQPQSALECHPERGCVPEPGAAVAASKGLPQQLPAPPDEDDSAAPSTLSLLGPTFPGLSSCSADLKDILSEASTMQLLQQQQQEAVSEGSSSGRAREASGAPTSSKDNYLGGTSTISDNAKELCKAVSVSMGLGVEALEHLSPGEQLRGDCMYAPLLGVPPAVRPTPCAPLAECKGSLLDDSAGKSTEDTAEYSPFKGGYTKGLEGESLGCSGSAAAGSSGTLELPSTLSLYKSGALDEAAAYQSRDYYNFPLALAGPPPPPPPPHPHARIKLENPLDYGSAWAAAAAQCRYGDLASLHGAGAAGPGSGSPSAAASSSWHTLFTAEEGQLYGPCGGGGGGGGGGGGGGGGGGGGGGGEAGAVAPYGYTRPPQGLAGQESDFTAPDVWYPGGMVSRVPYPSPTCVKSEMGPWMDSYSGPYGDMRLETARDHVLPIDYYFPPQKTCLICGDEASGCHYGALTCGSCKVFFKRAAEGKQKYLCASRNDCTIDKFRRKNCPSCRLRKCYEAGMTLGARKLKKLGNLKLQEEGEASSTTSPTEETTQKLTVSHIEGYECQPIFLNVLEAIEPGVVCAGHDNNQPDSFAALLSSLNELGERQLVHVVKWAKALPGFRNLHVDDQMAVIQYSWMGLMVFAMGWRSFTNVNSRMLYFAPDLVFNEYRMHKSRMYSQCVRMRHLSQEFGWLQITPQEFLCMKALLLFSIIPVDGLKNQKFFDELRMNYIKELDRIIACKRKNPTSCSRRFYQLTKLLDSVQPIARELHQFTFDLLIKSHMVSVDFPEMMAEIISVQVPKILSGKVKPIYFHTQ

[2] = qHTS assay to identify small molecule HDAC inhibitors - cell viability counter screen (AID 1259365); conditions: HCT-116 viability, CellTiter-Glo ATP luminescence, 2 h; also: nearly all actives have a fitted effect of over 50% in size
Method in brief: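 After overnight seeding at 1,500 cells per well, wild-type HCT-116 cultures took up compounds in DMSO for 2hr at 37 C. Viable cell content came from luminescence with CellTiter-Glo.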

[3] = qHTS assay to identify small molecule agonists of the sonic hedgehog signaling (Shh) pathway - cell viability counter screen (AID 1259366); conditions: NIH/3T3 Gli1-Luc viability, CellTiter-Fluor, 24 h; series mostly up to 92.4 µM; also: nearly all actives have a fitted effect of over 50% in size; also: potency is read from the fitted curve at half-maximal effect
Method in brief: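 Same-well cytotoxicity read. Gli1-Luc reporter 3T3 cells; compounds 24hr, 37C/5% CO2; CellTiter-Fluor fluorescence.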

[4] = qHTS assay to identify small molecule antagonists of the sonic hedgehog signaling (Shh) pathway - cell viability counter screen (AID 1259367); conditions: NIH/3T3 Gli1-Luc viability, CellTiter-Fluor, 24 h; series mostly up to 92.4 µM; also: nearly all actives have a fitted effect of over 55% in size; also: potency is read from the fitted curve at half-maximal effect
Method in brief: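 Seed 3T3 Gli1-Luc cells at 2,000 per well; incubate 4 hr; add compound in DMSO, then conditioned medium; incubate at 37C with 5% CO2; add CellTiter-Fluor after 23 hr; read fluorescence 1 hr later.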

[5] = qHTS assay to identify small molecule agonists of the sonic hedgehog signaling (Shh) pathway (AID 1259368; calls by dose curve; also: nearly all actives have a fitted effect of over 15% in size); conditions: NIH/3T3 Gli1-Luc reporter, luciferase, 24 h, stronger effect = higher value
Method in brief: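 NIH/3T3-derived 3T3Gli1-Luc cells carrying a stably integrated Gli1 response element–firefly luciferase reporter were plated, left 4 hr at 37 C, then given compounds in DMSO for 24 hr. Luminescence was read 30 min after adding luciferase reagent.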

[6] = qHTS assay to identify small molecule antagonists of the sonic hedgehog signaling (Shh) pathway (AID 1259369; calls by dose curve; also: nearly all actives have a fitted effect of over 45% in size; also: potency is read from the fitted curve at half-maximal effect); conditions: NIH/3T3 Gli1-Luc reporter, Shh antagonist, luminescence 24 h; series mostly up to 92.4 µM
Method in brief: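 NIH/3T3-derived 3T3Gli1-Luc cells with stably integrated Gli1-Luc reporter were preincubated 4hr at 37 C, then given compounds in DMSO plus Shh conditioned medium and incubated 24hr. Firefly luciferase luminescence read after 30min reagent at room temperature.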

[7] = qHTS assay to identify small molecule agonists of the estrogen receptor beta (ER-beta) signaling pathway - cell viability counter screen (AID 1259380); conditions: ER-beta-bla HEK293T viability, CellTiter-Glo luminescence, 16 h; series mostly up to 92.4 µM; also: nearly all actives have a fitted effect of over 30% in size; also: potency is read from the fitted curve at half-maximal effect
Method in brief: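 ER-beta-UAS-bla HEK293T cells in medium with 2% charcoal-stripped FBS were preincubated 6 hr at 37C, dosed with compound in DMSO for 16 hr, then after the bla read, CellTiter-Glo was added for 30 min at room temperature; luminescence recorded.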

[8] = biological target: Estrogen receptor beta (Homo sapiens) (UniProt Q92731); test: qHTS assay to identify small molecule agonists of the estrogen receptor beta (ER-beta) signaling pathway (AID 1259377; active = well fitted activation curve with a large enough effect in the signal ratio in the repeat runs, not every such curve was filed as active; the % refers to the signal ratio); conditions: ER-beta-UAS-bla HEK293T, beta-lactamase FRET ratio, 16 h; at 92.4 µM (top of the series) unless noted
[9] = biological target: Estrogen receptor beta (Homo sapiens) (UniProt Q92731); test: qHTS assay to identify small molecule antagonists of the estrogen receptor beta (ER-beta) signaling pathway (AID 1259378; active = well fitted inhibition curve with a large enough effect in the signal ratio in the repeat runs, not every such curve was filed as active; the % refers to the signal ratio); conditions: ER-beta-UAS-bla HEK293T, beta-lactamase FRET ratio, 16 h; at 92.4 µM (top of the series) unless noted
Method in brief: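 ER-beta-UAS-bla HEK293T cells in 2% charcoal-stripped FBS medium treated with compound plus 1nM final 17-beta-estradiol for 16 hr at 37C. Beta-lactamase reporter read by FRET substrate fluorescence after 2 hours at room temperature.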

[10] = biological target: Androgen receptor (Homo sapiens) (UniProt P10275); test: qHTS assay to identify small molecule agonists of the androgen receptor (AR) signaling pathway in the presence of an antagonist (AID 1259381; calls by dose curve; also: nearly all actives have a fitted effect of over 15% in size; also: potency is read from the fitted curve at half-maximal effect); conditions: MDA-kb2 MMTV-luciferase, AR agonist + nilutamide, 16 h; series mostly up to 92.4 µM
[11] = at 92.4 µM (top of the series) unless noted
% is scaled to controls: 0 for no effect and ±100 for the full control effect.

OCCSCCO
inactive: Potency [1] | activity change, negative = cytotoxicity ([2]; at 42.5 µM (top of the series)) -0.429% | activity change, negative = cytotoxicity ([2]; at 92.4 µM (top of the series)) 5.86% | Potency [3] | Potency [4] | activity change ([5]; at 42.5 µM (top of the series)) 0.75% | activity change ([5]; at 92.4 µM (top of the series)) 0% | Potency [6] | Potency [7]

[NH4+].[O-][Cl+3]([O-])([O-])[O-]
inactive: Potency [1] | activity change, negative = cytotoxicity [2, 11] 2.11% and -0.0399% | Potency [3] | Potency [4] | activity change [5, 11] -0.0454% and 0.0406% | Potency [6] | activation [8] -0.177% | activity, negative = inhibition [9] 3.57% | Potency [7]

CN(C)CCCl
inactive: Potency [1] | activity change, negative = cytotoxicity [2, 11] 2.56% | Potency [3] | Potency [4] | activity change [5, 11] 0.509% | Potency [7] | Potency [10]
active: Potency [6] 54.5 µM

CCOP(=O)(CC)Oc1ccc([N+](=O)[O-])cc1 (configuration not stated)
inactive: Potency [1] | activity change, negative = cytotoxicity [2, 11] 1.87% [at 42.5 µM] | Potency [3] | Potency [4] | activity change [5, 11] -0.173% [at 42.5 µM] | Potency [7] | Potency [10]

CP(=O)(O)OCCC[Si](O)(O)O
inactive: Potency [1] | activity change, negative = cytotoxicity [2, 11] -0.542% | Potency [3] | Potency [4] | activity change [5, 11] 1.15% | Potency [6] | activity, negative = inhibition [9] 9.53% | Potency [7]

Cc1c([N+](=O)[O-])cccc1[N+](=O)[O-]
inactive: Potency [1] | activity change, negative = cytotoxicity [2, 11] -1.77% and -0.156% | Potency [3] | Potency [4] | activity change [5, 11] -0.279% and 0.372% | Potency [6] | Potency [7]

C/C1=C2N=C(/C=C3N=C(/C(C)=C4\[N-][C@@](C)([C@@H]5N=C1[C@](C)(CCC(=O)NC[C@@H](C)OP(=O)([O-])O[C@H]1[C@@H](O)[C@@H](n6cnc7cc(C)c(C)cc76)O[C@@H]1CO)[C@H]5CC(N)=O)[C@@](C)(CC(N)=O)[C@@H]4CCC(N)=O)[C@@](C)(CC(N)=O)[C@@H]\3CCC(N)=O)C(C)(C)[C@@H]/2CCC(N)=O.[C-]#N.[Co+3]
inactive: Potency [1] | activity change, negative = cytotoxicity [2, 11] -10.7% [at 42.5 µM] | Potency [3] | Potency [4] | activity change [5, 11] 2.02% [at 42.5 µM] | Potency [6] | activation [8] -1.92% [at 42.5 µM] | activity, negative = inhibition [9] 13.7% [at 42.5 µM] | Potency [7]

Cc1ccc([N+](=O)[O-])c([N+](=O)[O-])c1
70 µM (active) and inactive: Potency [7]
inactive: Potency [1] | activity change, negative = cytotoxicity [2, 11] -3.85% and 1.47% | activity change [5, 11] -9.17% and -16.4%

N#CBr
inactive: Potency [1] | activity change, negative = cytotoxicity [2, 11] 0% | Potency [3] | Potency [4] | activity change [5, 11] -0.634% | Potency [6] | activation [8] -1.86% | activity, negative = inhibition [9] 0.629% | Potency [7] | Potency [10]

Cc1ccc([N+](=O)[O-])cc1[N+](=O)[O-]
17 µM (active) and inactive: Potency [4]
13.5 µM (active) and inactive: Potency [3]
inactive: Potency [1] | activity change [5, 11] -3.5% and -0.319% | Potency [7]

O=[N+]([O-])[O-].[NH4+]
inactive: Potency [1] | activity change, negative = cytotoxicity [2, 11] -0.889% and 4.85% | Potency [3] | Potency [4] | activity change [5, 11] -1.63% and -0.786% | Potency [6] | Potency [7]

O=[N+]([O-])OCC(CO[N+](=O)[O-])(CO[N+](=O)[O-])CO[N+](=O)[O-]
inactive: Potency [1] | activity change, negative = cytotoxicity [2, 11] -2.05% | Potency [3] | Potency [4] | activity change [5, 11] -0.0079% | Potency [6] | activation [8] 0.973% | activity, negative = inhibition [9] -7.23% | Potency [7] | Potency [10]

CC(C)OP(C)(=O)OC(C)C
inactive: Potency [1] | activity change, negative = cytotoxicity [2, 11] 2.9% and 2.86% | Potency [3] | Potency [4] | activity change [5, 11] -0.877% and 0.849% | Potency [6] | activation [8] -2.33% and -2.75% | activity, negative = inhibition [9] 19.3% | Potency [7]

CCN(CC)CCCl
inactive: Potency [1] | activity change, negative = cytotoxicity [2, 11] -1.63% | activity change [5, 11] -9.29% | Potency [10]

O=[N+]([O-])c1cccc([N+](=O)[O-])c1
inactive: Potency [1] | activity change, negative = cytotoxicity [2, 11] -12.9% | Potency [3] | Potency [4] | activity change [5, 11] 0.97% | Potency [7]

CC(C)N(CCO)C(C)C
inactive: Potency [1] | activity change, negative = cytotoxicity [2, 11] 2.42% | Potency [3] | Potency [4] | activity change [5, 11] -0.207% | activation [8] -2.7% | activity, negative = inhibition [9] -4.04% | Potency [7] | Potency [10]

CCOP(=O)(CC)OCC
inactive: Potency [1] | activity change, negative = cytotoxicity [2, 11] 0.457% | Potency [3] | Potency [4] | activity change [5, 11] -0.564% | Potency [6] | activation [8] -0.217% | activity, negative = inhibition [9] 3.03% | Potency [7]

Nc1cc([N+](=O)[O-])cc([N+](=O)[O-])c1O
inactive: activity change, negative = cytotoxicity [2, 11] -18% | activity change [5, 11] -1.93% | Potency [6]

COP(C)(=O)OC
inactive: Potency [1] | Potency [3] | Potency [4] | activity change [5, 11] -0.471% and 0.0744% | Potency [6] | activation [8] 0.169% and 0.439% | activity, negative = inhibition [9] 17.6% and 13.4% | Potency [7]

COc1ccc([N+](=O)[O-])cc1[N+](=O)[O-]
inactive: Potency [1] | activity change, negative = cytotoxicity [2, 11] -2.27% | Potency [3] | Potency [4] | activity change [5, 11] -0.144% | Potency [6] | Potency [7]

N=C(N)N[N+](=O)[O-]
inactive: Potency [1] | activity change, negative = cytotoxicity [2, 11] 0.976% | Potency [3] | Potency [4] | activity change [5, 11] 0.569% | Potency [6] | Potency [7] | Potency [10]

Cc1cccc([N+](=O)[O-])c1[N+](=O)[O-]
inactive: activity change, negative = cytotoxicity [2, 11] 9.82% [at 42.5 µM] | Potency [3] | activity change [5, 11] 0.857% [at 42.5 µM] | Potency [7]
active: Potency [1] 18.3 µM | Potency [10] 18.3 µM

From PubChem BioAssay (Tox21)
